Each structure is given as a SMILES string. Only a part is listed here, and it is no random draw. Records with an inconclusive call do not appear. Active and inactive are the calls of the source. Calls follow the shape of the dose curve; as a rule, active = well fitted inhibition curve with a large enough effect; inconclusive = small, poorly fitted or top-dose-only effect, or effect the other way; inactive = no such curve, though single readings can be large or run the other way.
Potency is read from the fitted curve at half-maximal effect.

The chains behind the UniProt entries cited, without tags or fusion partners. Where a name states a change or a piece, a line headed by the entry shows the natural chain unless it says otherwise.
UniProt P51450: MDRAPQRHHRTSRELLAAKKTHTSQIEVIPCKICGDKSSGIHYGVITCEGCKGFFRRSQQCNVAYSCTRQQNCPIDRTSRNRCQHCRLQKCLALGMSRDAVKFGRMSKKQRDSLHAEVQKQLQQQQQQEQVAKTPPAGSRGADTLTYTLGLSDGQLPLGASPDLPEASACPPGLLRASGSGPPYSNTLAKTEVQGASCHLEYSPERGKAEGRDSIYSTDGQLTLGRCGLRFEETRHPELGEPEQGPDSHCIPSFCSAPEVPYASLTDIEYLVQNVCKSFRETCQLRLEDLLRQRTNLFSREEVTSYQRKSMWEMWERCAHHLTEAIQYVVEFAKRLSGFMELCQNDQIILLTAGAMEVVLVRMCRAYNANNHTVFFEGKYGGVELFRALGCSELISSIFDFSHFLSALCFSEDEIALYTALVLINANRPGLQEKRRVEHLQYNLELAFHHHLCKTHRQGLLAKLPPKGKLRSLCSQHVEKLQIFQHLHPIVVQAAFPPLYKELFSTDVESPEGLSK

The test concerns the target Nuclear receptor ROR-gamma (Mus musculus) (UniProt P51450). As to the kind of experiment: qHTS for inhibitors of ROR gamma transcriptional activity. Also: nearly all actives have a fitted effect of over 60% in size. The conditions noted are these: Drosophila S2 Gal4-RORgamma UAS-luciferase reporter, 20 h. In general terms: Quantitative high-throughput screening tests each substance at several concentrations.
Take `COc1ccc(Nc2nc(Nc3ccc(OC)cc3)nc(SC3=NCCS3)n2)cc1`: the Potency was active: 3.98 µM.

Source of the values: PubChem BioAssay AID2551 (National Center for Advancing Translational Sciences (NCATS), 2010).
